Yeast mating assay 2: variants of the scFv Ab-91

Binding partner: SARS-CoV-2 spike HR2 peptide, sequence PDVDLGDISGINAS.

The variants keep the light chain, the linker and the frameworks of Ab-91 (scFv order VL, the linker GGGGSGGGGSGGGGS, VH).
VL: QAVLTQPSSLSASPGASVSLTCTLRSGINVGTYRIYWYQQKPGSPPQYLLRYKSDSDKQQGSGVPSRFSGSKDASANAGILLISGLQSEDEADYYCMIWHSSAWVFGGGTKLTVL
VH: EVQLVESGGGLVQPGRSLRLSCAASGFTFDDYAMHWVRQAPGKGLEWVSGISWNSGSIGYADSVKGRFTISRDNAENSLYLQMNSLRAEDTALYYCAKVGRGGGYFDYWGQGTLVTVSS

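The starting antibody came from a phage panning campaign against this peptide. AAYL51 was designed without a model: most single CDR substitutions and a random sample of double and triple ones. The assay is AlphaSeq: two haploid yeast populations carry antibody and antigen on their surface. After mating in shaken culture at 30 °C for 16 h, diploids were selected and their barcode pairs sequenced. The ratio of observed to expected reads was calibrated, replicate by replicate, on BCL2-family standards whose Kd was known from biolayer interferometry. The assay was run in three technical replicates.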

The parent's heavy chain CDRs are GFTFDDYAMH, GISWNSGSIGYADSVK, VGRGGGYFDY; each variant's own CDRs replace them letter for letter.
Affinities are written as log10 Kd with Kd in nM; a lower number is a better binder.
A mean of the replicates is given; it leaves out those without a signal.
Where no diploid with the target was found in that replicate, the entry reads "ND": below detection, most likely a poor binder, though not proof of it.
In this assay the parent's reference entry averaged 1.86; its copy inside this library read 0.88.
As a blank, each scFv also met three strains without target: over library AAYL51, 21% of these pairings were detected, typically at 4.54 and seldom below 3.26. For each scFv, signals with the empty controls are counted beside the result, with their mean in brackets.

CDR-H1	CDR-H2	CDR-H3	replicates, log10 nM	log10 Kd (nM), mean	empty controls
GFTFDDYAMH	GISWNSGSIGYADSVK	VGRMGGYFDY	4.07 ND 2.56	3.31	1 of 9 (2.93)
GFTFDDYAMH	GISVNSGSIGYDDSVK	VGRYGGYFDY	1.82 1.73 1.79	1.78	5 of 9 (4.42)
GFTFDDYAMH	KNSWNSGSIGYADSVK	VGRGGGYFDY	5.63 ND ND	5.63	2 of 9 (4.23)
GFAFDDYAMH	GISWNSGSIGYALSVK	VGRGHGYFDY	4.46 ND ND	4.46	5 of 9 (4.93)
GFTFDDYAMH	GIIWNSGSIGDADLVK	VGRGGGYFDY	ND 5.38 ND	5.38	3 of 9 (4.09)
GFDFDDEAMH	GISWNSGSIGYADSVK	KGRGGGYFDY	4.78 ND 4.51	4.65	4 of 9 (4.37)
GFTFDDDAMH	GSSWNSGSIGYADSVI	VGRGGGYFDY	ND ND ND	ND	0 of 9
GFTFDDYAIH	GISWNSNSIGYADSVK	VGRGGGYADY	ND ND ND	ND	0 of 9
GFTFDDYAMH	SIEWNSGSIGYADSVK	VGRGGGLFDY	ND ND ND	ND	0 of 9
GFTVDDYAMH	GISLNSGSIGYADSVK	VGRGGGYFDY	5.24 ND ND	5.24	3 of 9 (4.48)
IYTFDDYAMH	GISWNSGSIGYSDSVK	VGRGGGYFDY	4.39 ND ND	4.39	1 of 9 (4.18)
SFTFDDYAMH	GISWNSGQIGYADSVK	VGRGGGYFDY	4.80 ND ND	4.80	2 of 9 (3.83)
GFTFDDYAMH	GIDWNSGSIGYADYVN	VGRGGGYFDY	3.81 3.41 4.40	3.87	2 of 9 (4.00)
GFTFEDYAMH	GISVNSGSIGYADSVG	VGRGGGYFDY	ND ND ND	ND	1 of 9 (3.15)
LFTFDDYAMH	GISWNSGHIGYADSVK	VGRGGGYFDY	ND ND ND	ND	0 of 9
GFTFDDYAMH	GISWNSGSAGYADEVK	VPRGGGYFDY	3.76 5.74 4.99	4.83	6 of 9 (3.89)
GFTFDDYAMH	GIHCNSGSIGYADSVK	VGRGGGYFDY	3.84 ND ND	3.84	2 of 9 (4.75)
GYTFDDYAMW	GISWNSGSIGYADSVK	VGRPGGYFDY	ND 6.03 ND	6.03	3 of 9 (4.54)
GFTFQDYAMH	GISWHSGSIGYADSVK	VGIGGGYFDY	ND ND ND	ND	2 of 9 (4.85)
GFTFDDYKMH	GISWNSGSIGYRDSVD	VGRGGGYFDY	5.10 5.73 ND	5.41	6 of 9 (5.02)
GFNFDDYAMH	GISWNSGSIQYADSVY	VGRGGGYFDY	ND ND ND	ND	0 of 9
GFTFDTYAMH	GISWRSGSIGYAHSVK	VGRGGGYFDY	ND ND ND	ND	0 of 9
GFTFDDYAYH	GISWNSGSIGYADSCK	VGWGGGYFDY	ND 6.13 ND	6.13	3 of 9 (3.93)
GFTFDDYAMH	GISWNSGSIGYADSVK	VLRGGGYFDY	ND ND ND	ND	1 of 9 (3.35)
GFTFDDYAMH	GISWNSGSIGKADSVK	VGQGWGYFDY	ND ND ND	ND	0 of 9
GLTFDDYAMH	GILWNSGSIGYADSVK	VVRGGGYFDY	3.71 ND ND	3.71	0 of 9
MFTFDDYNMH	GISWNSGSIGYADSVK	VGRGCGYFDY	ND ND ND	ND	2 of 9 (4.07)
GFTFDDYAMH	GISWNSGSIGYADSVA	CGRGGCYFDY	5.10 5.43 4.73	5.09	4 of 9 (5.02)
GFTFKDYCMH	GISWNSGSQGYADSVK	VGRGGGYFDY	ND ND ND	ND	0 of 9
GFTFDDYAMH	GISWNSHSIGYADSVK	VGRGGGYFNY	4.80 3.86 ND	4.33	1 of 9 (4.24)
GFTFDDYAMH	GILWNSGSIGYADSVK	VGRGGKYFDY	ND ND ND	ND	0 of 9
GFTFDDYAMH	GISWNEGSIGYADSVK	VARGGHYFDY	ND ND ND	ND	1 of 9 (2.94)
GLTFDDYAMH	GISWNSGSIGYADSVK	VGNGGGYADY	4.70 6.20 4.58	5.16	2 of 9 (3.62)
GFTFDYYAMH	GISWNSGSIGYADSVK	VDRGGGYFDY	ND ND ND	ND	0 of 9

Repeated from above, the 4 best binders with a signal in all replicates:

| CDR-H1 | CDR-H2 | CDR-H3 | replicates, log10 nM | log10 Kd (nM), mean | empty controls |
|---|---|---|---|---|---|
| GFTFDDYAMH | GISVNSGSIGYDDSVK | VGRYGGYFDY | 1.82 1.73 1.79 | 1.78 | 5 of 9 (4.42) |
| GFTFDDYAMH | GIDWNSGSIGYADYVN | VGRGGGYFDY | 3.81 3.41 4.40 | 3.87 | 2 of 9 (4.00) |
| GFTFDDYAMH | GISWNSGSAGYADEVK | VPRGGGYFDY | 3.76 5.74 4.99 | 4.83 | 6 of 9 (3.89) |
| GFTFDDYAMH | GISWNSGSIGYADSVA | CGRGGCYFDY | 5.10 5.43 4.73 | 5.09 | 4 of 9 (5.02) |

Values reported by Engelhart et al. 2022, doi:10.1038/s41597-022-01779-4 (FLAb copy).